Results taken from patent US20100105730A1 (H. Lundbeck A/S, priority 2007, published 2010).

Sequences of proteins named here, by UniProt entry; tags and fusion partners are left off. Residues count along the entry.
UniProt P35563, 24-483: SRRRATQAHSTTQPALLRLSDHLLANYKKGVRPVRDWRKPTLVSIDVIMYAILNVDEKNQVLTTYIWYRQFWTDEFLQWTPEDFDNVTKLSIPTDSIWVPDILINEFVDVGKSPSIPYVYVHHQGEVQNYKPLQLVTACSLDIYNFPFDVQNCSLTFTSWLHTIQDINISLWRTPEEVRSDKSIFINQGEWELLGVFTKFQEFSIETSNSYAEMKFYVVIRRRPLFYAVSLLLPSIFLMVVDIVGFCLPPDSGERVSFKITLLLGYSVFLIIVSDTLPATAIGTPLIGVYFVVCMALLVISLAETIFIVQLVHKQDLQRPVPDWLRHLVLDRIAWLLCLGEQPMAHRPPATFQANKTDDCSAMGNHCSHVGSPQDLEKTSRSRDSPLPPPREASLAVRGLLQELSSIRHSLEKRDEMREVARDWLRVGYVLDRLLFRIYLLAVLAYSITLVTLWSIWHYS

Molecular target: rat-homomeric 5-HT3A receptors (Rattus norvegicus, UniProt P35563)
Assay: cell-based
Experimental: The experiments were carried out as follows. […] Oocytes avoid of the follicle layer were selected and incubated for 24 hours in Modified Barth's Saline buffer [88 mM NaCl, 1 mM KCl, 15 mM HEPES, 2.4 mM NaHCO3, 0.41 mM CaCl2, 0.82 mM MgSO4, 0.3 mM Ca(NO3)2] supplemented with 2 mM sodium pyruvate, 0.1 U/l penicillin and 0.1 μg/l streptomycin. Stage […] oocytes were identified and injected with 12-48 nl of nuclease free water containing 14-50 pg of cRNA coding for human 5-HT3A receptors receptors and incubated at 18° C. until they were used for electrophysiological recordings (1-7 days after injection). […] Cells were impaled with agar plugged 0.5-1 MΩ electrodes containing 3 M KCl and voltage clamped at −90 mV by a GeneClamp 500B amplifier. The oocytes were continuously perfused with Ringer buffer and the drugs were applied in the perfusate.

## NCCc1c[nH]c2ccc(O)cc12 [5-HT, Serotonin]
  EC50: 3.3 µM
